Patent US4386099A, “Imidazolylphenyl amidines, pharmaceutical compositions containing same and use thereof” (Istituto de Angeli S.p.A., priority 1980, dated 1983)

Amino acid sequences for entries named in this document (tags omitted).
UniProt P47747, whole entry: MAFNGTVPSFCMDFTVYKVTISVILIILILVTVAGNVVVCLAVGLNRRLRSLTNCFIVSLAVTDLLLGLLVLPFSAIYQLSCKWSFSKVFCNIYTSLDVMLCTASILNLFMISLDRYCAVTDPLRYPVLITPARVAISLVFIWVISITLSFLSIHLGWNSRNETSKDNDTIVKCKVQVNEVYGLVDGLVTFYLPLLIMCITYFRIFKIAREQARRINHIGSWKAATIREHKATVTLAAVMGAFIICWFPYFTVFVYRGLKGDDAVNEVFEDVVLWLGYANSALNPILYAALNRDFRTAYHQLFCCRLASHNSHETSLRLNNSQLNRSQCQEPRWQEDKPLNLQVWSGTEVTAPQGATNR

Molecular target: T1, histamine H2-receptors (Cavia porcellus, UniProt P47747)
T1 construct: isolated guinea pig atria suspended in an organ bath; from tissue; host or cells: isolated guinea pig atria
Assay: In vitro inhibitory activity in histamine-induced tachycardia (positive chronotropic effect, isolated guinea pig atria)
Assay type: cell-based
Procedure: The positive chronotropic effect has been investigated in isolated guinea pig atria suspended in an organ bath (50 ml) containing oxygenated (O2 : 95%, CO2 : 5%) Krebs-Henseleit solution (pH 7.4) maintained at 32° C. The myocardial preparation, loaded at 1 gm of isometric tension, is allowed to stabilize for 60 minutes and myocardial contractions are recorded through an isometric lever connected to a strain-gauge coupler. The instantaneous rate is monitored with a cardiotachymeter and a heat-writing pen recorder. After a control run, responses (tachycardia) to histamine (10^-6 g/ml) are obtained three times at 30 minute intervals. The test compounds are added to the bath to the desired final concentration, and the atria are again injected with histamine. The chronotropic response obtained in the presence of the antagonist is then compared to the control response to histamine, and the percent reduction of the histamine H2 -evoked response is calculated. The average effective concentration (EC50) of the H2 -antagonists is also calculated by standard repression analysis of the dose percentage response curve determined according to D. R. Waud, Analysis of Dose-response Curves, in "Methods in Pharmacology", vol. 3 Smooth Muscle, Ed Daniel E. E. Patron, M., Plenum Press. New York (1975), and Ash and Schild, Br. J. Pharmacol. Chemother. 27 427-439 (1966).

## CN/C(=N/CCSCc1nc[nH]c1C)NC#N [Cimetidine]
  EC50: 3.4 µM
